Hits are enriched below; roughly 2.8% of the tested compounds scored in any of these assays.
C2C12 statin – suppressors of statin myotoxicity in C2C12 myotubes, primary screen, cell-based, single point, plate reader | C2C12 myotubes + simvastatin, ATP luminescence, 48 h; scaled: DMSO 0, geranylgeraniol control 100 | rescue of ATP level, % at 7.49 µM | actives 0.78% (n = 330,000);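 active = mean ATP rescue above about 67%, or every replicate alone reaching that limit, limit read from the data, passing the limit was not always enough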;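 note: myotubes were challenged with 10 µM simvastatin during compound exposure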
PGC1a acetyl inh – inhibitors of PGC1a acetylation signal, primary screen, cell-based, U2OS, AlphaScreen, inhibitor mode. AlphaScreen anti-acetyl-lysine; with virally co-expressed GCN5 acetyltransferase. inhibition, % at 15.6 µM. actives 0.17% (n = 350,000). AID 651687, 2012;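 active = every replicate shows inhibition of at least 40%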
Yeast UUG start – modulators of yeast start codon fidelity, primary screen, whole organism, S. cerevisiae, single point, plate reader; S. cerevisiae UUG-firefly luciferase reporter, luminescence/redox ratio; activity score, % at 18.7 µM; 0.13% of 350,000 active; AID 602363, 2012;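 active = replicate mean at a twofold rise or more, about +100% in these data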;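 also: firefly luciferase made from a UUG start codon reports start codon fidelity; reporter light over untreated wells divided by growth signal over untreated wells; some hits fall short of that in this replicate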
E-selectin induc – E-selectin induction in HUVECs, primary screen, imaging, HUVEC, immunofluorescence imaging, single point. normalized: neutral wells 0, TNF-alpha wells 100. activation, % at 7.58 µM. actives 0.37% (n = 260,000);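 active = mean E-selectin-positive cell signal at least 10% of the positive control, reached in at least 60% of replicates, without over 20% cell loss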
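System: HUVEC, human umbilical vein endothelial cells; quantity: 3,000 cells/well; buffer or medium: EGM-2 medium, gelatin-coated wells; dosing: single-point compound dose; detection: immunofluorescence imaging; evaluation: % PE-positive cells; benchmarks: TNF-alpha, DMSO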
PglD DTNB – C. jejuni PglD acetyltransferase inhibitors, primary screen, biochemical, DTNB colorimetric, single point | UDP-N-acetylbacillosamine N-acetyltransferase PglD (Campylobacter jejuni) | purified PglD enzyme, DTNB colorimetric CoA detection | inhibition, % at 12.5 µM | actives 0.098% (n = 360,000); in the data active = inhibition above about 16%, passing the limit was not always enough
esBAF inh – Bmi1 luciferase reporter increase in mESCs, primary screen, esBAF inhibitor project, mouse ES cells, Bmi1 luciferase knock-in, single point | 24 h; 100% = twice the neutral-well signal | reporter increase, % at 12.5 µM | actives 2% (n = 350,000); in the data active = activation above about 40%;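 note: a rise in the Bmi1 reporter signal indicates esBAF inhibition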
Hits are given with their value; . = inactive; / = not tested or not shown.

SMILES | C2C12 statin | PGC1a acetyl inh | Yeast UUG start | E-selectin induc | PglD DTNB | esBAF inh
C[C@H](CO)N1C[C@H](C)[C@@H](CN(C)S(C)(=O)=O)Oc2c(NC(=O)c3nc4ccccc4s3)cccc2C1=O | / | . | . | / | . | .
Cc1cc(NC(=O)c2cccc(Br)c2)n[nH]1 | . | / | . | . | . | 47.3
O=C(NC1=NCCS1)c1cccc(F)c1 | / | . | . | . | . | /
O=C(NC1=NCCS1)c1ccc(Cl)cc1 | . | / | . | . | . | 43.8
CCN(CC)S(=O)(=O)c1cccc(C(=O)NC(C(=O)NC2=NCCS2)C(C)C)c1 (stereo not drawn) | 80.9 | . | . | / | . | .
O=C(NC1=NCCS1)c1cccc(Br)c1 | . | . | . | / | . | 48.3
O=C(NC1=NCCS1)c1ccc(-c2ccc(Cl)cc2)o1 | / | . | . | / | . | /
CCCNC(=O)Nc1ccc2c(c1)OC[C@H](C)N(Cc1ccc(-c3ccccn3)cc1)C[C@H](C)[C@@H](OC)CN(C)C2=O | / | . | / | . | / | /
Cc1ccccc1S(=O)(=O)N1CC(=O)N2[C@H](CO)[C@H](c3ccc(C#CCC(C)C)cc3)[C@H]2C1 | / | . | / | . | / | /
COc1ccc(NC(=O)N(C)C[C@@H]2OCCCC[C@@H](C)Oc3ccc(NS(=O)(=O)c4ccc(Cl)cc4)cc3C(=O)N([C@@H](C)CO)C[C@@H]2C)cc1 | / | . | . | . | . | .
CO[C@H](CN(C)C(=O)Nc1ccc(Cl)cc1)[C@@H](C)CN(Cc1ccccc1Cl)[C@H](C)CO | . | . | / | . | . | .
Cc1nc(-c2noc(-c3cccc(Cl)c3)n2)c(C(F)(F)F)o1 | / | . | / | / | / | /
Cc1nc(-c2noc(-c3ccccc3Cl)n2)c(C(F)(F)F)o1 | . | / | . | . | . | 47.5
N#Cc1cccc(-c2ccc(C3[C@@H]4CN(S(=O)(=O)c5ccccc5)C[C@H]3N4)cc2)c1 (stereo partly drawn) | / | . | / | . | / | /
N#Cc1cccc(-c2ccc([C@@H]3[C@@H]4CN(S(=O)(=O)c5ccc(-c6ccccc6)cc5)C[C@H]3N4)cc2)c1 | / | 93.0 | / | . | / | /
C[C@@H]1CN([C@H](C)CO)C(=O)c2cccc(NC(=O)c3ccc(-c4nccs4)cc3)c2O[C@@H]1CN(C)Cc1ccc(C(F)(F)F)cc1 | . | . | . | . | . | .
C[C@@H]1CN([C@H](C)CO)C(=O)c2cccc(NC(=O)c3ccc(-c4nccs4)cc3)c2O[C@@H]1CN(C)Cc1ccc(Cl)c(Cl)c1 | / | . | . | . | . | .
C[C@@H]1CN([C@@H](C)CO)C(=O)c2cccc(NC(=O)c3ccc(-c4nccs4)cc3)c2O[C@@H]1CN(C)Cc1ccc(C(F)(F)F)cc1 | 74.3 | . | . | . | . | .
C[C@@H]1CN([C@@H](C)CO)C(=O)c2cccc(NC(=O)c3ccc(-c4nccs4)cc3)c2O[C@H]1CN(C)Cc1ccc(Oc2ccccc2)cc1 | . | . | . | 71.0 | . | .
C[C@@H]1CN([C@H](C)CO)C(=O)c2cccc(NC(=O)c3ccc(-c4nccs4)cc3)c2O[C@@H]1CN(C)Cc1ccc(Oc2ccccc2)cc1 | . | . | . | . | . | .
C[C@H]1CN([C@@H](C)CO)C(=O)c2cccc(NC(=O)c3ccc(-c4nccs4)cc3)c2O[C@@H]1CN(C)Cc1ccc(Cl)c(Cl)c1 | / | . | . | 304.0 | . | .
CN1CCN(C(=O)[C@@H]2[C@@H](CO)[C@@H]3Cn4c(ccc(-c5cncnc5)c4=O)[C@@H]3N2CC2CC2)CC1 | . | / | / | . | . | .
CS(=O)(=O)Nc1ccc2c(c1)[C@H]1C[C@H](CC(=O)NCC3CC3)O[C@@H](CO)[C@H]1O2 | . | . | / | . | . | .
C[C@@H]1CN([C@H](C)CO)C(=O)c2cc(C#CCN(C)C)cnc2O[C@@H]1CN(C)Cc1ccc(C(=O)O)cc1 | . | . | . | . | . | .

Screening data from PubChem BioAssay.
